These are literature values, as cited in patent US4835182A (priority 1987, dated 1989).

For the data set the following is noted: most widely used drug in the treatment of brain tumors; cited from earlier work.

Molecules are shown by their SMILES.

Take `O=NN(CCCl)C(=O)NCCCl` [BCNU]: the brain/plasma ratio result was “approximately 0.3”.
